These are literature values, as cited in patent US12649776B2, “Scaffold proteins and therapeutic nanoconjugates based on nidogen” (UNIVERSITAT AUTÒNOMA DE BARCELONA, priority 2019, dated 2026).

The conditions of the data set: literature value; cited from earlier work.

For “HSA: human serum albumin, literature comparator (Picó)”, the Tm was 63 °C.
